# Source: patent US20220024982A1, “BICYCLIC PEPTIDE LIGANDS SPECIFIC FOR MT1-MMP” (BicycleTx Limited, priority 2018, published 2022)
# Target: MT1-MMP Hemopexin domain (PEX) (Homo sapiens, UniProt P50281)
# Assay: MT1-MMP fluorescence polarisation competition binding assay
# Settings: tracer 17-69-07-N040 (hemopexin binding tracer); read-out: Kd (nM ± 95% CI)
# Excerpt: Due to their high affinities to the MT1-MMP Hemopexin domain (PEX), the fluoresceinated derivatives of 17-69-07 and 17-69-12 (denoted as 17-69-07-N040, 17-69-07-N041 and 17-69-12-N004) can be used for competition experiments (using FP for detection)
# Here, a pre-formed complex of PEX with the fluorescent PEX-binding tracer is titrated with free, non-fluoresceinated bicyclic peptide. Since all 17-69-based peptides are expected to bind at the same site, the titrant will displace the fluorescent tracer from PEX. Dissociation of the complex can be measured quantitatively, and the Kd of the competitor (titrant) to the target protein determined. The advantage of the competition method is that the affinities of non-fluoresceinated bicyclic peptides can be determined accurately and rapidly.
# Concentrations of tracer are usually at the Kd or below (here, 1 nM), and the binding protein (here, hemopexin of MT1-MMP) is at a 15-fold excess such that >90% of the tracer is bound. Subsequently, the non-fluorescent competitor bicyclic peptide (usually just the bicycle core sequence) is titrated, such that it displaces the fluorescent tracer from the target protein. The displacement of the tracer is measured and associated with a drop in fluorescence polarisation. The drop in fluorescence polarisation is proportional to the fraction of target protein bound with the non-fluorescent titrant, and thus is a measure of the affinity of titrant to target protein.
# In certain experiments, collagen binding tracers (i.e. 17-88-N006 and 17-88-226-N002) were used in an analogous manner to the hemopexin binding tracers.
# The raw data is fit to the analytical solution of the cubic equation that describes the equilibria between fluorescent tracer, titrant, and binding protein. The fit requires the value of the affinity of fluorescent tracer to the target protein, which can be determined separately by direct binding FP experiments (see previous section). The curve fitting was performed using Sigmaplot 12.0 and used an adapted version of the equation described by Zhi-Xin Wang (FEBS Letters 360 (1995) 111-114).
row,Substance,Kd [nM]
1,A-(SEQ ID NO: 4)-A [17-116-01],352
2,A-(SEQ ID NO: 79)-A [17-121-00],678
3,A-(SEQ ID NO: 80)-A [17-127-01],2200
4,A-(SEQ ID NO: 81)-A [17-129-00],446
5,A-(SEQ ID NO: 83)-A [17-129-02],877 ± 651
6,A-(SEQ ID NO: 84)-A [17-129-03],536 ± 126
7,A-(SEQ ID NO: 85)-A [17-129-04],595 ± 372
8,A-(SEQ ID NO: 86)-A [17-129-05],136 ± 22.3
9,A-(SEQ ID NO: 87)-A [17-129-06],566
10,A-(SEQ ID NO: 88)-A [17-129-07],582
11,A-(SEQ ID NO: 89)-A [17-129-08],516
12,A-(SEQ ID NO: 90)-A [17-129-09],1090
13,A-(SEQ ID NO: 91)-A [17-129-10],781
14,A-(SEQ ID NO: 92)-A [17-129-11],912
15,A-(SEQ ID NO: 95)-NVI [17-129-14-T02],318
16,A-(SEQ ID NO: 101)-TVL [17-129-20-T01],213
17,A-(SEQ ID NO: 102)-SWL [17-129-21-T01],111 ± 33.7
18,A-(SEQ ID NO: 103)-LTE [17-129-22-T01],53.7
19,A-(SEQ ID NO: 104)-YSE [17-129-23-T01],54.8
20,A-(SEQ ID NO: 108)-A [17-126-06],675 ± 192
21,A-(SEQ ID NO: 109)-A [17-126-07],198 ± 85.3
22,A-(SEQ ID NO: 110)-A [17-126-08],711

row,Substance,Kd [nM]
1,A-(SEQ ID NO: 111)-A [17-126-09],165
2,A-(SEQ ID NO: 112)-A [17-126-10],737
3,A-(SEQ ID NO: 113)-A [17-126-18],147
4,A-(SEQ ID NO: 114)-A [17-126-19],199
5,A-(SEQ ID NO: 115)-A [17-126-20],246
6,A-(SEQ ID NO: 116)-A [17-126-21],131
7,A-(SEQ ID NO: 117)-A [17-126-22],295
8,A-(SEQ ID NO: 118)-A [17-126-23],409
9,A-(SEQ ID NO: 119)-A [17-126-24],200
10,A-(SEQ ID NO: 120)-A [17-126-25],> 139
11,A-(SEQ ID NO: 121)-A [17-126-26],1200
12,A-(SEQ ID NO: 122)-A [17-126-27],143
13,A-(SEQ ID NO: 123)-A [17-126-28],250
14,A-(SEQ ID NO: 132)-PDVA [17-126-39-T01],187
15,A-(SEQ ID NO: 133)-HQAA [17-126-40-T01],310
16,A-(SEQ ID NO: 134)-RENA [17-126-41-T01],202
17,A-(SEQ ID NO: 135)-A [17-126-11],971
18,A-(SEQ ID NO: 136)-A [17-126-12],2900
19,A-(SEQ ID NO: 137)-A [17-122-02],> 929
20,A-(SEQ ID NO: 138)-A [17-122-03],> 378
21,A-(SEQ ID NO: 139)-A [17-122-04],> 2100
22,ADY-(SEQ ID NO: 99)-A [17-129-18-T04],172 ± 53.9

row,Substance,Kd [nM]
1,ANE-(SEQ ID NO: 129)-A [17-126-36-T01],149
2,AVW-(SEQ ID NO: 130)-A [17-126-37-T01],155
3,D-(SEQ ID NO: 97)-RA [17-129-16-T01],263
4,DLH-(SEQ ID NO: 128)-A [17-126-35-T01],263
5,DNM-(SEQ ID NO: 99)-A [17-129-18-T02],334
6,ENITT-(SEQ ID NO: 82)-A [17-129-01-T05],324
7,GPH-(SEQ ID NO: 125)-A [17-126-31-T01],295
8,HSP-(SEQ ID NO: 124)-A [17-126-30-T01],239
9,IHS-(SEQ ID NO: 126)-A [17-126-32-T01],390
10,ISSYG-(SEQ ID NO: 82)-A [17-129-01-T04],705
11,KVQ-(SEQ ID NO: 131)-A [17-126-38-T01],162
12,L-(SEQ ID NO: 93)-HA [17-129-12-T01],187
13,MAN-(SEQ ID NO: 100)-A [17-129-19-T01],754
14,N-(SEQ ID NO: 96)-NA [17-129-15-T01],278
15,Q-(SEQ ID NO: 95)-NA [17-129-14-T01],246 ± 46.1
16,QES-(SEQ ID NO: 99)-A [17-129-18-T03],202
17,REE-(SEQ ID NO: 99)-A [17-129-18-T01],138 ± 44
18,RYMTR-(SEQ ID NO: 98)-A [17-129-17-T03],312
19,SHS-(SEQ ID NO: 127)-A [17-126-33-T02],296
20,SLV-(SEQ ID NO: 82)-A [17-129-01-T03],598

# Same assay, conditions: tracer 17-69-07-N041 (hemopexin binding tracer); read-out: Kd (nM ± 95% CI)
row,Substance,Kd [nM]
1,A-(SEQ ID NO: 2)-A [17-111-01],1800
2,A-(SEQ ID NO: 3)-A [17-111-02],2300
3,A-(SEQ ID NO: 105)-A [17-126-01],> 316
4,A-(SEQ ID NO: 106)-A [17-126-02],> 282
5,A-(SEQ ID NO: 107)-A [17-126-03],> 430

# Same assay, conditions: tracer 17-69-12-N004 (hemopexin binding tracer); read-out: Kd (nM ± 95% CI)
row,Substance,Kd [nM]
1,Ac-(SEQ ID NO: 104)-YSE [Ac-(17-129-23-T01)],8.9
2,Ac-A-(SEQ ID NO: 120)-A [Ac-(17-126-25)],60.5

# Same assay, conditions: tracer 17-88-226-N002 (collagen binding tracer); read-out: Kd (nM ± 95% CI)
row,Substance,Kd [nM]
1,(B-Ala)-Sar10-ALPP-(SEQ ID NO: 17),39.5 ± 16.4
2,(B-Ala)-Sar10-ALPP-(SEQ ID NO: 18),190 ± 32.2
3,(B-Ala)-Sar10-ALPP-(SEQ ID NO: 19),89.5 ± 10.1
4,Ac-(B-Ala)-Sar10-ALPP-(SEQ ID NO: 17),43.9 ± 15.5

# Same assay, conditions: tracer 17-88-N006 (collagen binding tracer); read-out: Kd (nM ± 95% CI)
row,Substance,Kd [nM]
1,A-(SEQ ID NO: 8)-A [17-120-03],604 ± 35
2,A-(SEQ ID NO: 12)-A [17-120-08],258 ± 102
3,AALP-(SEQ ID NO: 22)-A [17-120-12-T01],183
4,AAPP-(SEQ ID NO: 37)-A [17-120-27-T01],394
5,ADRP-(SEQ ID NO: 24)-A [17-120-14-T01],148
6,AEPA-(SEQ ID NO: 35)-A [17-120-25-T01],194 ± 162
7,ALDP-(SEQ ID NO: 23)-A [17-120-13-T01],189 ± 123
8,ALPP-(SEQ ID NO: 27)-A [17-120-17-T01],157
9,APAP-(SEQ ID NO: 13)-A [17-120-09-T12],62.2
10,APAP-(SEQ ID NO: 33)-A [17-120-23-T01],127 ± 7.84
11,APDP-(SEQ ID NO: 13)-A [17-120-09-T10],38.5
12,APHP-(SEQ ID NO: 13)-A [17-120-09-T13],69.3
13,APLP-(SEQ ID NO: 13)-A [17-120-09-T11],44.2
14,APMP-(SEQ ID NO: 20)-A [17-120-10-T01],132 ± 103
15,APNP-(SEQ ID NO: 13)-A [17-120-09-T09],77.2
16,APPP-(SEQ ID NO: 13)-A [17-120-09-T01],53.8 ± 13.3
17,APPP-(SEQ ID NO: 31)-A [17-120-21-T01],113
18,APPP-(SEQ ID NO: 38)-A [17-120-28-T01],192 ± 4.9
19,APPP-(SEQ ID NO: 41)-A [17-120-31-T03],41.5 ± 5.32

row,Substance,Kd [nM]
1,APPP-(SEQ ID NO: 44)-A [17-120-34-T01],59.9 ± 8.58
2,APPP-(SEQ ID NO: 45)-A [17-120-35-T01],23.3 ± 9.48
3,APSP-(SEQ ID NO: 21)-A [17-120-11-T01],612 ± 760
4,APSP-(SEQ ID NO: 32)-A [17-120-22-T01],62.4 ± 30.5
5,ARHP-(SEQ ID NO: 26)-A [17-120-16-T01],74.4 ± 17.6
6,ASPP-(SEQ ID NO: 36)-A [17-120-26-T01],598
7,ATQP-(SEQ ID NO: 25)-A [17-120-15-T01],178
8,AVEP-(SEQ ID NO: 34)-A [17-120-24-T01],126
9,AVPP-(SEQ ID NO: 39)-A [17-120-29-T01],162 ± 68.6
10,EPPP-(SEQ ID NO: 13)-A [17-120-09-T07],48.1
11,GPPP-(SEQ ID NO: 13)-A [17-120-09-T04],34.1 ± 10.2
12,HLPP-(SEQ ID NO: 41)-A [17-120-31-T01],50.2
13,HPPP-(SEQ ID NO: 13)-A [17-120-09-T08],37.5
14,MPPP-(SEQ ID NO: 42)-A [17-120-32-T01],63.8 ± 26.5
15,NPPP-(SEQ ID NO: 13)-A [17-120-09-T06],49.8
16,PLPP-(SEQ ID NO: 32)-A [17-120-22-T02],46.1 ± 26.5
17,QISP-(SEQ ID NO: 13)-A [17-120-09-T02],55.2
18,RLPP-(SEQ ID NO: 41)-A [17-120-31-T02],68.3
